Here are results for one substance from US8552053B2, “7-substituted indirubin-3′oximes and their applications” (Centre National de la Recherche Scientifique, priority 2005, dated 2013).

In the experiment the test system is GSK-3α/β. In words: GSK-3α/β kinase assay. The class given is biochemical, porcine.

Read-outs that look alike come from different tables or passages of the source.

For the substance “(2′Z,3′E)-7-bromoindirubin-3′-oxime [7BIO]”, the “inhibitory activity on GSK-3 (in words)” value was “marginal inhibitory activity”. Also, the “inhibitory activity on GSK-3 (in words)” value (listed as 24) is “weak and gradually decreasing inhibitory activity”.
